The source of these data is ChEMBL document CHEMBL1926631, “N⁴-Aryl-6-substitutedphenylmethyl-7H-pyrrolo[2,3-d]pyrimidine-2,4-diamines as receptor tyrosine kinase inhibitors” (Bioorg Med Chem, 2012).

By UniProt entry, the sequences of proteins in these tests, tags left out.
UniProt P17948, whole entry: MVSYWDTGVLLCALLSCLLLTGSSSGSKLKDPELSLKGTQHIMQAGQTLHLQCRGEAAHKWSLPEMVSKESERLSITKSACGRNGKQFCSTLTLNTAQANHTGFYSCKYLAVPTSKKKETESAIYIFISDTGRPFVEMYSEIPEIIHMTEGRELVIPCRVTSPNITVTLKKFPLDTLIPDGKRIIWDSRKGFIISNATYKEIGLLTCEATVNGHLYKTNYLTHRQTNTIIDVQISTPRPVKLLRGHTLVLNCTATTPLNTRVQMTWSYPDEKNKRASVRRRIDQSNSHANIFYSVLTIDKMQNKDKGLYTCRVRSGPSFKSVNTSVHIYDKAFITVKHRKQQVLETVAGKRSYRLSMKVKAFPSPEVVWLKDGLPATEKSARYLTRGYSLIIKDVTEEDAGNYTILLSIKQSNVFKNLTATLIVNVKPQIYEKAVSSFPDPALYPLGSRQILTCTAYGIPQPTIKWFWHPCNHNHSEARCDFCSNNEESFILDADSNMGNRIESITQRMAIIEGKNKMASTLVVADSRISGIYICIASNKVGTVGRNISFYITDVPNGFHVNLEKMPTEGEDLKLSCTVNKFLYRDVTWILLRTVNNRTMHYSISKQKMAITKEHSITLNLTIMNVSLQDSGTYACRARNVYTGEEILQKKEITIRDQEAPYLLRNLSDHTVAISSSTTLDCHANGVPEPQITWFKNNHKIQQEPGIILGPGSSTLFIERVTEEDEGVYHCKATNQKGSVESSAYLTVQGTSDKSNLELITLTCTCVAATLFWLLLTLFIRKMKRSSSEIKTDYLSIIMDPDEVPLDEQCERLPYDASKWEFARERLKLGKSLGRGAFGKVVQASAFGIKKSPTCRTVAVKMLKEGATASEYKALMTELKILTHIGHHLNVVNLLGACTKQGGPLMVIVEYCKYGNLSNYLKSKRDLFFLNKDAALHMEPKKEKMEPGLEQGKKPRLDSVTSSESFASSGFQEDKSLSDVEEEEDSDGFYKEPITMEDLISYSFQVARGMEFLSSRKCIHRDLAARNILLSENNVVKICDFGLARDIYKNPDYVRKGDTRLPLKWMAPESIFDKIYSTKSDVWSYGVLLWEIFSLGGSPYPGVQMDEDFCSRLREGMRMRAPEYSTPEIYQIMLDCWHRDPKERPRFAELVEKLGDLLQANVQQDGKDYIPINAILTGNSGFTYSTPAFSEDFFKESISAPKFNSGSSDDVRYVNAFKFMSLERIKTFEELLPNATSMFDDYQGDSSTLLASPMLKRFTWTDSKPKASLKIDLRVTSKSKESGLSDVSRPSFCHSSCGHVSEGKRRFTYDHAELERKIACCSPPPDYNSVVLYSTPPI
UniProt P09619, whole entry: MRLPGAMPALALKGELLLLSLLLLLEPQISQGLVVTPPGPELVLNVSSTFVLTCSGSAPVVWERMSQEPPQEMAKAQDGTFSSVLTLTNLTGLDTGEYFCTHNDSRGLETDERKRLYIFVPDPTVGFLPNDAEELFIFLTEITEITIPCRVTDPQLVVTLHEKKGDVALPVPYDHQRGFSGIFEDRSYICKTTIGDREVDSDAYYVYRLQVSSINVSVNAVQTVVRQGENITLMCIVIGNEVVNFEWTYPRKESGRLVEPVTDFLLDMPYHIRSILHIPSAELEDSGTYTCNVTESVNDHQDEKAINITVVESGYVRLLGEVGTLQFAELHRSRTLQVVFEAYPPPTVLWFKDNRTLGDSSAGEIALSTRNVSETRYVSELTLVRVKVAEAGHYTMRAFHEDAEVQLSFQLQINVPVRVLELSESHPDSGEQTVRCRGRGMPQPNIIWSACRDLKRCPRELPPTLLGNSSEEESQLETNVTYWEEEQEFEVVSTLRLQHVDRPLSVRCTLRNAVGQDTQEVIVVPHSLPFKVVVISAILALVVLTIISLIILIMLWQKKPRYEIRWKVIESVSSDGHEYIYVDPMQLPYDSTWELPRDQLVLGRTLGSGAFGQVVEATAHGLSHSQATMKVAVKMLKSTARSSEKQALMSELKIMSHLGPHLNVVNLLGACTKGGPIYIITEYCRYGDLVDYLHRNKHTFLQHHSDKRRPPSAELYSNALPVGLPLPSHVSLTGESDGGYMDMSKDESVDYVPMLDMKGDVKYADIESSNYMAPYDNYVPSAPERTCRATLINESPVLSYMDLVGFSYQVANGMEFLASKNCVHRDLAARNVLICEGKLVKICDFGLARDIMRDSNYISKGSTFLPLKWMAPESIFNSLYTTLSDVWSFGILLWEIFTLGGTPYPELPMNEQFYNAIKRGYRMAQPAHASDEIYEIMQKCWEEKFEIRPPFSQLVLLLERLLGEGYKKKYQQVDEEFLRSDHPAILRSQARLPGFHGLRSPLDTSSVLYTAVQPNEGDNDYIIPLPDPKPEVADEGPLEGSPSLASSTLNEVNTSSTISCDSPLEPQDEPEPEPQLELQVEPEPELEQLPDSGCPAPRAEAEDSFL
UniProt P35968, whole entry: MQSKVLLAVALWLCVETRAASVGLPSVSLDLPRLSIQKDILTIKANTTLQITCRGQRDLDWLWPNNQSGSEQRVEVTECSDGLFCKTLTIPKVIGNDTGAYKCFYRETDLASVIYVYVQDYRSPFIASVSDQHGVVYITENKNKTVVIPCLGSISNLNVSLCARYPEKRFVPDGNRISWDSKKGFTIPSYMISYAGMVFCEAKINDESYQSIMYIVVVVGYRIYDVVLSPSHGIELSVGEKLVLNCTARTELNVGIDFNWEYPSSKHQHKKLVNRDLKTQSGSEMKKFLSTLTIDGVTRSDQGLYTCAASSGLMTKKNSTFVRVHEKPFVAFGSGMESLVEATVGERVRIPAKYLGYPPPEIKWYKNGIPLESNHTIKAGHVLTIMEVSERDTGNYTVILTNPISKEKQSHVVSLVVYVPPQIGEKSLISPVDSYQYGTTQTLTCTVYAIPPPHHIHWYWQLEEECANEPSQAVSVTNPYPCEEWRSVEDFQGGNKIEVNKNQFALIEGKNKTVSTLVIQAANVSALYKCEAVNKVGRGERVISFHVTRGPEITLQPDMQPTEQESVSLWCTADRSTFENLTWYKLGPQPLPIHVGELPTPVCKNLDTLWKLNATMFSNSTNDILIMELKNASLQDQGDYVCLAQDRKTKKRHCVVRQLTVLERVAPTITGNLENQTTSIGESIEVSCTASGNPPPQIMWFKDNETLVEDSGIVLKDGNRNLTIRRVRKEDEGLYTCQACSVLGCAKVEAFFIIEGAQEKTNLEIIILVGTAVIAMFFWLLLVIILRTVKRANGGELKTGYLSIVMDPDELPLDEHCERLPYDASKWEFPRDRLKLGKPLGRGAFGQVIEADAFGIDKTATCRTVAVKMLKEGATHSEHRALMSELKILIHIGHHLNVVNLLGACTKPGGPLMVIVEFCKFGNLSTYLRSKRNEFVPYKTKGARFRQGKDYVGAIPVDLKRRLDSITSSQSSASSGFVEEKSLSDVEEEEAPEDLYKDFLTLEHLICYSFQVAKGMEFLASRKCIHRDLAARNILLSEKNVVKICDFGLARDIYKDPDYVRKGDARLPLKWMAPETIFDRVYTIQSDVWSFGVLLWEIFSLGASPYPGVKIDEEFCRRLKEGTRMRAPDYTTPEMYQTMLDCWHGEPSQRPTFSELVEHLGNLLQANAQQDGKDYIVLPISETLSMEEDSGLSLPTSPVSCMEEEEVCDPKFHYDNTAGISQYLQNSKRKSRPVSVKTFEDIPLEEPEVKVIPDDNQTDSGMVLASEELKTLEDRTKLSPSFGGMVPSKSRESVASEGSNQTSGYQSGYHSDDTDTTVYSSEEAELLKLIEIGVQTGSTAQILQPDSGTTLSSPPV

Assay [1] addresses Vascular endothelial growth factor receptor 1 (Homo sapiens, UniProt P17948). Description: Inhibition of VEGFR1 tyrosine kinase activity in VEGF-stimulated human A498 cells after 60 mins by ELISA. It is filed as cell-based. The gist of the method:
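Then stimulated 10 min with 100 ng/mL growth factor: PDGF-BB for SF-539 (PDGFR-β), VEGF for A498 (VEGFR-1). Lysed in ice-cold TBS/0.05% triton with protease and phosphatase inhibitors, heat/ethanol-fixed. Total phosphotyrosine read by HRP anti-phosphotyrosine with luminol chemiluminescence.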
On the technique in general: An ELISA detects its analyte on a solid surface through an enzyme-linked reagent.

Assay [2] deals with Platelet-derived growth factor receptor beta (Homo sapiens, UniProt P09619). The assay is described as follows: Inhibition of PDGFRbeta tyrosine kinase activity in PDGF-BB-stimulated human SF-539 cells after 60 mins by ELISA. The class given is cell-based. The method in brief:
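Lysed in ice-cold TBS/0.05% triton with protease and phosphatase inhibitors, heat/ethanol-fixed. Total phosphotyrosine read by HRP anti-phosphotyrosine with luminol chemiluminescence.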

For assay [3], the target named is Vascular endothelial growth factor receptor 2 (Homo sapiens, UniProt P35968). The assay is described as follows: Inhibition of VEGFR2 tyrosine kinase activity in VEGF-stimulated human U251 cells after 60 mins by ELISA. The class given is cell-based, U-251.

In general, IC50 refers to the midpoint of a concentration-inhibition curve. The low end stands for higher potency, the high end for lower potency. For `COc1ccc(OC)c(Cc2cc3c(Nc4cccc(Br)c4)nc(N)nc3[nH]2)c1`, the IC50 in assay [1] was 31.1 µM; in assay [2], 8.92 µM.
As for `Nc1nc(Nc2cccc(Br)c2)c2cc(Cc3cccc4ccccc34)[nH]c2n1`, the 50% inhibitory concentration (IC50) is 5.08 µM in assay [3] and more than 50 µM in assay [2].
